From patent US9862674B2, “Therapeutic compounds and methods of use” (University of Florida Research Foundation, Inc., priority 2007, dated 2018)

By UniProt entry, the sequences of proteins in these tests, tags left out. Residues count along the entry.
UniProt P28223, whole entry: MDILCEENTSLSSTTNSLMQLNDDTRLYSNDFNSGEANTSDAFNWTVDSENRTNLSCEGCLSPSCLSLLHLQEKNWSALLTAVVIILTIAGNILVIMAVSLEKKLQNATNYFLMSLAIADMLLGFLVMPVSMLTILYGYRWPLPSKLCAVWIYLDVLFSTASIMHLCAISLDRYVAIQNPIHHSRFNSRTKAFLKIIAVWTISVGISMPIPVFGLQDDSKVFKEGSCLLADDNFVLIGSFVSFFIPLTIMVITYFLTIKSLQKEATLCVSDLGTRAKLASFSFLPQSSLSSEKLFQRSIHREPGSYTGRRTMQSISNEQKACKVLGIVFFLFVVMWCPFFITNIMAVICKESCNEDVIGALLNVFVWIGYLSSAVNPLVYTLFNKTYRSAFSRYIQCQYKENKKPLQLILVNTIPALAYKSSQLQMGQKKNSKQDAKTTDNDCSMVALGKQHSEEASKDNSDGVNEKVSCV
UniProt P41595, whole entry: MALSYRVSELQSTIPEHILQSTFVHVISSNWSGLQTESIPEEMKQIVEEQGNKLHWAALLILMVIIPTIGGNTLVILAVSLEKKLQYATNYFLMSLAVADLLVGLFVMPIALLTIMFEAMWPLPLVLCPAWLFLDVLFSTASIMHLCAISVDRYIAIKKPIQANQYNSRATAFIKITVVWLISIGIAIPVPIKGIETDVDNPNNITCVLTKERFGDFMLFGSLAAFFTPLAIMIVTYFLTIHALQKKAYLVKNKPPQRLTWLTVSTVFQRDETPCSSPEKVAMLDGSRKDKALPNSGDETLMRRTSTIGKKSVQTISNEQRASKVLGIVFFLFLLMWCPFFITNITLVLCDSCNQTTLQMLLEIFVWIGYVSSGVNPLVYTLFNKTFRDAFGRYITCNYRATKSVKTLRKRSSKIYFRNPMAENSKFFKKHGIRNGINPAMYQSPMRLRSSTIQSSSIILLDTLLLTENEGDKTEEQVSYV
UniProt P28335, 33-458 limits assumed: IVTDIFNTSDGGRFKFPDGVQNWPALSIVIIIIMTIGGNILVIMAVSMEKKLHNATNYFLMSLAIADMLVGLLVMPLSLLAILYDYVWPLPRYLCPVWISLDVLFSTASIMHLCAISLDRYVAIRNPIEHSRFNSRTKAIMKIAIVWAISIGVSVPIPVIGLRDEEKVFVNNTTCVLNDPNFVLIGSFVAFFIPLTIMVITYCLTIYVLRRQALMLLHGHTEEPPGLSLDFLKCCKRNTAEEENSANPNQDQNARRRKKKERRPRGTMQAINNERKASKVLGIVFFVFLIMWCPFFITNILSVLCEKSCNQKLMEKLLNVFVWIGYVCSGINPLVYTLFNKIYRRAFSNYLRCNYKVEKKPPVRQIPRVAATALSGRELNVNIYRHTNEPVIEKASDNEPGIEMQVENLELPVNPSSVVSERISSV

Columns and labels:
5HT2A receptor [1] = biological target: T1, 5HT2A receptor (Homo sapiens, UniProt P28223); experiment: Radioreceptor saturation and competition binding, [3H]-ketanserin labeled 5-HT2A receptor membranes from transfected CHO-K1 cells; conditions: Hill slope, competition binding
human 5-HT2B receptor = human 5-HT2B receptor (Homo sapiens, UniProt P41595); experiment: Radioreceptor saturation and competition binding, [3H]-mesulergine labeled 5-HT2B receptor membranes from transfected CHO-K1 cells; conditions: Hill slope, competition binding
human 5-HT2C receptor = human 5-HT2C receptor (Homo sapiens, UniProt P28335); experiment: PLC/[3H]-IP formation in CHO cells transiently transfected with human 5-HT2C cDNA; format: cell-based; conditions: at Emax concentration
5HT2A receptor [2] = biological target: T1, 5HT2A receptor; experiment: PLC/[3H]-IP formation in CHO cells transiently transfected with human 5HT2A cDNA (agonist and antagonist mode); format: cell-based

SMILES: CN(C)[C@@H]1Cc2ccccc2[C@@H](c2ccccc2)C1
- nH of 5HT2A displacement curve (5HT2A receptor [1]): 1.1±0.1
- nH of 5-HT2B displacement curve (human 5-HT2B receptor): 1.1±0.1
- maximal PLC/[3H]-IP formation, 5-HT2C (human 5-HT2C receptor): 475 % basal control activity
- blockade of 5-HT-stimulated PLC/[3H]-IP formation, 5HT2A (5HT2A receptor [2]; (−)-trans-PAT 10 μM vs 5-HT 1.0 μM): fully blocked
- stimulation of PLC/[3H]-IP formation, 5HT2A (5HT2A receptor [2]; concentrations up to 10 μM): did not stimulate
